{"source": "patent US4598081A", "about": "“1,3-dioxo-1H-benz(de)isoquinoline-2(3H) butyric acid, pharmacologically acceptable salts thereof and compositions containing the same for treatment of diabetes mellitus complications” (Nauchno-Issledovatelsky Institut Endokrinologii I Obmena …, priority 1985, dated 1986)", "key": {"[1]": {"system": "white mice, rats, and dogs", "assay": "acute (\"high\") toxicity, symptoms and overall assessment in mice, rats and dogs", "details": "peroral", "experimental": "(§1) Mature animals both male and female, weighting 18 to 22 g (white mice), 180 to 220 g (rats), 11 to 15 kg (dogs) were used for said experiments.\n(§2) The drug was introduced in the form of a starch suspension through a gastric tube.\n(§3) Each dose being examined was tested on 5-6 animals.\n(§4) LD50 determined by the Lichfield and Wilcoxon method, or the Van der Waerden method was used as an index of high toxicity. The animals were kept under observation for 5 days."}, "Dogs": {"system": "Dogs", "assay": "acute (\"high\") toxicity, peroral, dogs", "experimental": "as §1, §2, §3, §4"}, "rats, rabbits, and dogs": {"system": "rats, rabbits, and dogs", "assay": "chronic toxicity, 6 months peroral, observations on rats, rabbits and dogs together", "details": "50 and 100 mg per kg peroral, five times in a week", "experimental": "The experiments were performed on rats, rabbits, and dogs.\nIn addition, the action of the proposed drug on the carbohydrate and uropoiesis functions of the liver was also examined.\nThe above indices were examined at the beginning of the experiment and then after 1, 2, 3, 4, 5, and 6 months.\nAt the end of the experiments there were carried out pathomorphological examinations of the lungs, heart, liver, kidneys, adrenal glands, spleen, lymph nodes, intestine, stomach, pancreas, and thyroid glands.\nOn completion of the experiment (six months) the experimental animals were killed: the dogs were killed with thiopental, the rabbits with aeroembolism, and the rats with diethyl ether. Thereafter, the lungs, heart, liver, kidneys, adrenal glands, spleen, lymph nodes, intestine, pancreas and thyroid gland of the killed animals were examined. The material thus obtained was fixed in formole. There were prepared paraffin sections which were then stained with hematoxylin and eosin."}, "Rats": {"system": "Rats", "assay": "acute (\"high\") toxicity, peroral, rats", "experimental": "as §1, §2, §3, §4"}, "White mice": {"system": "White mice", "assay": "acute (\"high\") toxicity, peroral, white mice", "experimental": "as §1, §2, §3, §4"}}, "data": [{"compound": "O=C(O)CCCN1C(=O)c2cccc3cccc(c23)C1=O", "note": "[1,3-dioxo-1H-benz(de)isoquinoline-2(3H)butyric acid]", "values": [{"measurement": "symptoms of the acute lethal poisoning", "setting": "[1]", "value": "flaccidity, hypodynamia, and lower respiration rhythm"}, {"measurement": "range of lethal concentrations", "setting": "Dogs", "value": 2.88}, {"measurement": "lethal cases among the experimental animals", "setting": "rats, rabbits, and dogs", "value": "no lethal cases"}, {"measurement": "range of lethal concentrations", "setting": "Rats", "value": 2.36}, {"measurement": "range of lethal concentrations", "setting": "White mice", "value": 3.4}]}]}
